## Measured affinities in a library of Ab-14 heavy chain variants

Target: peptide PDVDLGDISGINAS, taken from heptad repeat 2 (HR2) of SARS-CoV-2 spike.

Each scFv is VH, the linker GGGGSGGGGSGGGGS, VL, as in the parent Ab-14, and differs from it in the CDRs of the heavy chain only.
VH: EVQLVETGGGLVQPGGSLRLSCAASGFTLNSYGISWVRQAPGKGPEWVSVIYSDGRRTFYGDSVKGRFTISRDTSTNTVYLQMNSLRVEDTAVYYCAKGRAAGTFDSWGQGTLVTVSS
VL: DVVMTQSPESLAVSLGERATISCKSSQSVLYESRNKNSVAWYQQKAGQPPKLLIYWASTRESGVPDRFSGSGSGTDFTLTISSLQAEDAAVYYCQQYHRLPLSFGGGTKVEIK

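The parent was found by panning a naive human phage display library on the peptide. Designed CDR sequences, proposed from the first random library and measured here. Their group label is 14H_GP_Gibbs (GP: Gaussian process model; Gibbs: Gibbs sampling; a sequence that several methods proposed may carry one label only). In AlphaSeq, yeast of one mating type display the scFv and yeast of the other type display the target. After mating in shaken culture at 30 °C for 16 h, diploids were selected and their barcode pairs sequenced. Scores were corrected for input abundance and mapped to Kd with protein pairs of known affinity run in the same pool. Mating was done six times.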

The whole VH of each variant is written out.
Values are log10 of the apparent Kd in nM; lower means stronger binding.
A pair that was not seen in that replicate is written "ND"; this usually means weak binding, but a binder can also be missed.
In the paper, a design with two or fewer of six values counts as a poor binder.
Values of this round are not directly comparable with the first-round values of the same sequences.
As a blank, each scFv also met three strains without target: over all heavy chain designs, 1% of these pairings were detected, typically at 2.08 and seldom below 0.84. Also given: how often the same scFv was detected with the empty control strains.

With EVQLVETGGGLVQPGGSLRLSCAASGFVLNSYGISWVRQAPGKGPEWVSVIYSDGRRTFYGDQVKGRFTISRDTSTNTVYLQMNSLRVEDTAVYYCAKGRTAGTFDSWGQGTLVTVSS the result was 1.61, ND, 1.84, ND, ND, ND (controls 1 of 18).
With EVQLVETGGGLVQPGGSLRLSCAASGFTLNSYGISWVRQAPGKGPEWVSVIYSDGRRTFYGDSVKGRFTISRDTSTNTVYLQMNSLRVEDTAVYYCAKGEVAGTFDNWGQGTLVTVSS the result was -0.29, -0.81, -0.70, -0.81, -0.95, -0.73 (controls 0 of 18).
With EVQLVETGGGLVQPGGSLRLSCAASGFSLNSYGISWVRQAPGKGPEWVSVIYSDGRRTFYVDDVKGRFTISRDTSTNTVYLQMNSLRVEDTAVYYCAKGSAAGTFDSWGQGTLVTVSS the result was 0.77, -0.82, 0.09, -0.94, -1.05, -0.63 (controls 0 of 18).
With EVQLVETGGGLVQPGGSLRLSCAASGFDLNSYGISWVRQAPGKGPEWVSVIYSDGRRTFYTDSVKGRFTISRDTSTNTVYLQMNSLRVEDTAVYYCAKGKNAGTFDSWGQGTLVTVSS the result was -0.17, 0.05, 0.25, -0.20, -0.24, -0.17 (controls 0 of 18).
With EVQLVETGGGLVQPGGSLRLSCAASMFSLNSYGISWVRQAPGKGPEWVSVIYSDGRRTAYGDSVKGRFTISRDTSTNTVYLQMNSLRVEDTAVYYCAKGRNAGTFDSWGQGTLVTVSS the result was ND, ND, ND, 2.06, 2.46, 2.79 (controls 0 of 18).
With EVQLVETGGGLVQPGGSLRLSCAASGFDLNSYGISWVRQAPGKGPEWVSVIYSDGRRTFYSDQVKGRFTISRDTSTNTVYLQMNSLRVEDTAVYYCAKGQTAGTFDSWGQGTLVTVSS the result was 0.21, 0.13, 0.64, -0.21, 0.18, 0.02 (controls 0 of 18).
With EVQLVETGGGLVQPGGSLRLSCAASKFSLNSYGISWVRQAPGKGPEWVSVIYSDGRRTFYADSVKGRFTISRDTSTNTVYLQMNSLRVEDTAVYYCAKGRTAGTFDTWGQGTLVTVSS the result was 0.00, 0.12, -0.23, -0.19, -0.28, -0.19 (controls 0 of 18).
With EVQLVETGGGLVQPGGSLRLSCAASKFDLNSYGISWVRQAPGKGPEWVSVIYSDGRRTFYIDSVKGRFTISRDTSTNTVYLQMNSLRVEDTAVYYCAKGRNAGTFDSWGQGTLVTVSS the result was 2.05, 1.64, 1.29, 1.11, 1.30, 1.57 (controls 0 of 18).
With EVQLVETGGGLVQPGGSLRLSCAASGFSLNMYGISWVRQAPGKGPEWVSVIYSDGRRTFYSDSVKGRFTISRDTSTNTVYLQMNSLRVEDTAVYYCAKGKAAGTFDSWGQGTLVTVSS the result was 0.70, 0.71, 0.21, 0.48, 0.27, 0.59 (controls 0 of 18).
With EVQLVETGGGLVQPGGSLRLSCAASGFWLNEYGISWVRQAPGKGPEWVSVIYSDGRRTFYGDSVKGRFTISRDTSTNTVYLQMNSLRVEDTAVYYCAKGKTAGTFDTWGQGTLVTVSS the result was ND, ND, ND, ND, ND, ND (controls 0 of 18).
With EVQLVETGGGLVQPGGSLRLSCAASGFQLNSYGISWVRQAPGKGPEWVSVIYSDGRRTFYADQVKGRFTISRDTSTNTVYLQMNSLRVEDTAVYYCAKGREAGTFDSWGQGTLVTVSS the result was 0.78, 0.47, 0.23, 0.51, 0.61, 0.39 (controls 0 of 18).
With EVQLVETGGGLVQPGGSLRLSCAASGFQLNSYGISWVRQAPGKGPEWVSVIYSDGRRTFYSDQVKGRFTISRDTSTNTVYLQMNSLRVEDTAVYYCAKGRQAGTFDSWGQGTLVTVSS the result was 0.91, ND, 1.14, ND, 1.29, ND (controls 0 of 18).
With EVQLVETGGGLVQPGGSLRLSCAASKFSLNSYGISWVRQAPGKGPEWVSVIYSDGRRTFYADSVKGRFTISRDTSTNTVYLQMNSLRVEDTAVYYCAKGRHAGTFDSWGQGTLVTVSS the result was 1.52, 1.86, 1.34, 1.34, 2.10, 1.50 (controls 0 of 18).
With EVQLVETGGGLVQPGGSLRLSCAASGFSLNTYGISWVRQAPGKGPEWVSVIYSDGRRTFYKDSVKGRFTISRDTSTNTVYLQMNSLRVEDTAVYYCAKGTAAGTFDSWGQGTLVTVSS the result was 0.51, 0.15, 0.29, 0.07, 0.59, 0.52 (controls 0 of 18).
With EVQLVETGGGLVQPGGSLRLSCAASGFSLNSYGISWVRQAPGKGPEWVSVIYSDGRRTFYGDRVKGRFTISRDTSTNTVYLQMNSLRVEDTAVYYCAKGRQAGTFDSWGQGTLVTVSS the result was 0.41, 2.43, 0.40, 1.50, 0.71, 1.46 (controls 1 of 18).
With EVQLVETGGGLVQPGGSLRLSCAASGFDLNSYGISWVRQAPGKGPEWVSVIYSDGMRTFYGDWVKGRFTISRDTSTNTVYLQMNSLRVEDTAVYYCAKGRTAGTFDSWGQGTLVTVSS the result was ND, ND, ND, ND, 2.31, 1.26 (controls 0 of 18).
With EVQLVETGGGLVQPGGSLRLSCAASGFSLNEYGISWVRQAPGKGPEWVSVIYSDGRRTFYGDSVKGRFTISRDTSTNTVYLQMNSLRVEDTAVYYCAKGVSAGTFDSWGQGTLVTVSS the result was 1.52, 0.58, 0.08, 0.85, 0.34, 0.81 (controls 0 of 18).
With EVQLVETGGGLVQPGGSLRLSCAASGFVLNEYGISWVRQAPGKGPEWVSVIYSDGRRTFYGDSVKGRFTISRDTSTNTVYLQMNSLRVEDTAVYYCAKGKTAGTFDVWGQGTLVTVSS the result was -0.66, 0.20, ND, ND, -0.15, 0.19 (controls 0 of 18).
With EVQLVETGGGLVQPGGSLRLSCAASGFTLNSYGISWVRQAPGKGPEWVSVIYSDGKRTFYGDNVKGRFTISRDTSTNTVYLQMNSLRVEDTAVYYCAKGQAAGTFDTWGQGTLVTVSS the result was 1.58, 1.10, 1.06, 0.61, 1.31, 0.93 (controls 0 of 18).
With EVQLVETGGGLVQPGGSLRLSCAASGFTLNSYGISWVRQAPGKGPEWVSVIYSDGKRTFYSDSVKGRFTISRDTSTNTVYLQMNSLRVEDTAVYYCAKGEAAGTFDRWGQGTLVTVSS the result was ND, ND, ND, ND, ND, ND (controls 0 of 18).
With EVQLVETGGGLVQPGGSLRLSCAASGFDLNSYGISWVRQAPGKGPEWVSVIYSDGRRTFYVDRVKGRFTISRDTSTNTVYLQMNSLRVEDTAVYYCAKGQAAGTFDSWGQGTLVTVSS the result was ND, ND, ND, ND, 3.85, ND (controls 0 of 18).
With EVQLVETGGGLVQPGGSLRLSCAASGFTLDSYGISWVRQAPGKGPEWVSVIYADGRRTFYHDSVKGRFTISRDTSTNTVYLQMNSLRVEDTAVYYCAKGRAAGTFDSWGQGTLVTVSS the result was 0.25, -0.13, 0.00, -0.21, 0.53, -0.17 (controls 1 of 18).
With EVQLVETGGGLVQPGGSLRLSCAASKFSLNNYGISWVRQAPGKGPEWVSVIYSDGRRTFYTDSVKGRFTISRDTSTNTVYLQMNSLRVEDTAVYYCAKGRTAGTFDSWGQGTLVTVSS the result was 1.59, ND, 1.55, 1.70, ND, 2.07 (controls 0 of 18).

Excerpt, the first 3 entries:

With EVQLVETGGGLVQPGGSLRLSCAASGFVLNSYGISWVRQAPGKGPEWVSVIYSDGRRTFYGDQVKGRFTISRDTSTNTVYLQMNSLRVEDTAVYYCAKGRTAGTFDSWGQGTLVTVSS the result was 1.61, ND, 1.84, ND, ND, ND (controls 1 of 18).
With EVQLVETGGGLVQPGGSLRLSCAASGFTLNSYGISWVRQAPGKGPEWVSVIYSDGRRTFYGDSVKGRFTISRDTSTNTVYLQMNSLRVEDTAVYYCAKGEVAGTFDNWGQGTLVTVSS the result was -0.29, -0.81, -0.70, -0.81, -0.95, -0.73 (controls 0 of 18).
With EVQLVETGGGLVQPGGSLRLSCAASGFSLNSYGISWVRQAPGKGPEWVSVIYSDGRRTFYVDDVKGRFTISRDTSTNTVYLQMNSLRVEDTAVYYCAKGSAAGTFDSWGQGTLVTVSS the result was 0.77, -0.82, 0.09, -0.94, -1.05, -0.63 (controls 0 of 18).

The measurements come from Li et al. 2023 (doi:10.1038/s41467-023-39022-2) through the FLAb antibody collection.